For two compounds, inhibition results are on record in ChEMBL document CHEMBL2176900, “Design and synthesis of a novel series of bicyclic heterocycles as potent γ-secretase modulators” (J Med Chem, 2012).

Protein sequences, listed by entry. Tags and fused reporters are not part of them. Lines headed by an entry give the natural chain unless they say otherwise; changes in a name come on top.
UniProt Q96BI3: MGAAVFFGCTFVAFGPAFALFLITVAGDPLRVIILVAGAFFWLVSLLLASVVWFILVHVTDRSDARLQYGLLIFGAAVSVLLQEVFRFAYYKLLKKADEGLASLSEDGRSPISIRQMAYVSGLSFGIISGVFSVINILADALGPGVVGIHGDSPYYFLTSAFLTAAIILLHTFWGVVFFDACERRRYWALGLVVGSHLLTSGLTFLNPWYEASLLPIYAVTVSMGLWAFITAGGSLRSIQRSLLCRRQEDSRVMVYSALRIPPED
UniProt Q9NZ42: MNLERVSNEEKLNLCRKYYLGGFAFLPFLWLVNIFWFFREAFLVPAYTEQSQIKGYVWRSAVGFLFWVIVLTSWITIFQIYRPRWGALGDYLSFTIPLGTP
UniProt Q8WW43: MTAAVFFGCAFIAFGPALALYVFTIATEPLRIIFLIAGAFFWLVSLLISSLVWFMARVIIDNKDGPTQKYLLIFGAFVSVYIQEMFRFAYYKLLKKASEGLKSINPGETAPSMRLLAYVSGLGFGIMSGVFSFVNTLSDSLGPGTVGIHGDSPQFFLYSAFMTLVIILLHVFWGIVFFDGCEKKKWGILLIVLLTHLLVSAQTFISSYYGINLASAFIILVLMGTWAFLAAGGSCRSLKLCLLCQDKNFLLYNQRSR
UniProt Q92542: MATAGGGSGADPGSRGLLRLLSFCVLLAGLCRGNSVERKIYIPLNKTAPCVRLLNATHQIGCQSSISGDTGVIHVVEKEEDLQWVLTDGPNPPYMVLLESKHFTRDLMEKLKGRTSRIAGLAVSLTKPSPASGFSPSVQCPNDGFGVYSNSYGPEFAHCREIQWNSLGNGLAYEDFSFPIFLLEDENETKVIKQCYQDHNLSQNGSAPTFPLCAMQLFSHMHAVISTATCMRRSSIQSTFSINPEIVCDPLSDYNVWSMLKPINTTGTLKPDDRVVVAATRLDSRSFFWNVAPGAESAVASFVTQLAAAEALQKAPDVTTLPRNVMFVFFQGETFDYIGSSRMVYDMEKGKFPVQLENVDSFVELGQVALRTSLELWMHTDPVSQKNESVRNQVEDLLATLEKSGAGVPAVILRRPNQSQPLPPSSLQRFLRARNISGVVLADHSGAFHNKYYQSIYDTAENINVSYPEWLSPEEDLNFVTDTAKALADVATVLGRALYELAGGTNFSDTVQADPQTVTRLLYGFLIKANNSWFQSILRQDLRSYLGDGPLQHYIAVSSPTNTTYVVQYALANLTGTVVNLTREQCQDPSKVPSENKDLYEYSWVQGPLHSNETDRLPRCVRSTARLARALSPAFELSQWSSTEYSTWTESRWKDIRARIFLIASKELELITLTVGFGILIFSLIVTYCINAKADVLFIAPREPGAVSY

Calls of active or inactive are those of the source. The calls are words filed in the database; no cut-off is given here.

The subject of experiment [1] is Gamma-secretase (Homo sapiens). The experiment in a line: Inhibition of gamma-secretase in human SK-N-BE(2) cells expressing wild type APP 695 assessed as reduction in total amyloid beta level up to 10 uM after overnight incubation by sandwich immunoassay.
Experiment [2] concerns the target Gamma-secretase (Homo sapiens) (UniProt Q96BI3+Q9NZ42+Q8WW43+P49768+Q92542+P49810). Briefly: Inhibition of gamma-secretase in human SK-N-BE(2) cells expressing wild type APP 695 assessed as reduction in total amyloid beta level up to 10 uM after overnight incubation by sandwich immunoassay. Format: cell-based. The essentials: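 SK-N-BE(2) cells with wild-type APP695 were plated at 10⁴ cells/well in supplemented Ultraculture with test compound at several concentrations. They were incubated overnight at 37 °C, 5% CO₂. Supernatant Aβtotal was measured by AlphaLisa sandwich immunoassay (JRF/AβN/25 capture, biotinylated 4G8). Data are % of the maximum Aβtotal seen without compound.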

As to `COc1nc(Nc2cccc3c2nc(-c2ccc(F)cc2)n3C)ccc1-n1cnc(C)c1`, the inhibition result in experiment [1] is “inactive”. In the case of `COc1cc(/C=C2\CCCN([C@@H](C)c3ccc(F)cc3)C2=O)ccc1-n1cnc(C)c1`, in experiment [2], the inhibition entry was “inactive”.
